In this assay the target is PI3Kβ (Homo sapiens (Human), UniProt P42338). In words: PI3K beta isoform inhibition. It counts as biochemical. An excerpt: Inhibitory activity can be determined routinely using known methods and also front commercial vendors offering this service for kinases and bromodomain proteins. […] In vivo, PI3K inhibition can be determined from target tissue biopsies by standard tissue processing to disrupt cells and then performing Western Blot analysis to determine the presence or absence of pAKT (substrate of PI3K) relative to a control sample. The activity of a compound of the invention as an inhibitor of a bromodomain-containing protein, such as a BET protein, such as BRD2, BRD3, BRD4, and/or BRDT, or an isoform or mutant thereof may be determined in vitro, in vivo, or in a cell line. In vitro assays include assays that determine inhibition of bromodomain-containing proteins. Alternatively, inhibitor binding may be determined by running a competition experiment where a provided compound is incubated with a bromodomain-containing protein, such as a BET protein bound to known ligands, labeled or unlabeled. For example, bromodomain inhibition can be determined in vitro using Alpha Screen Technology (http://www.reactionbiology.com/webapps/site/NewsPDFs/Bromodomain%20Assay%20Platform%20for%20Drug%/20Screening%20and%20Discovery.pdf). […]

By UniProt entry, the sequences of proteins in these tests, tags left out. Where a name states a change or a piece, a line headed by the entry shows the natural chain unless it says otherwise.
UniProt P42338: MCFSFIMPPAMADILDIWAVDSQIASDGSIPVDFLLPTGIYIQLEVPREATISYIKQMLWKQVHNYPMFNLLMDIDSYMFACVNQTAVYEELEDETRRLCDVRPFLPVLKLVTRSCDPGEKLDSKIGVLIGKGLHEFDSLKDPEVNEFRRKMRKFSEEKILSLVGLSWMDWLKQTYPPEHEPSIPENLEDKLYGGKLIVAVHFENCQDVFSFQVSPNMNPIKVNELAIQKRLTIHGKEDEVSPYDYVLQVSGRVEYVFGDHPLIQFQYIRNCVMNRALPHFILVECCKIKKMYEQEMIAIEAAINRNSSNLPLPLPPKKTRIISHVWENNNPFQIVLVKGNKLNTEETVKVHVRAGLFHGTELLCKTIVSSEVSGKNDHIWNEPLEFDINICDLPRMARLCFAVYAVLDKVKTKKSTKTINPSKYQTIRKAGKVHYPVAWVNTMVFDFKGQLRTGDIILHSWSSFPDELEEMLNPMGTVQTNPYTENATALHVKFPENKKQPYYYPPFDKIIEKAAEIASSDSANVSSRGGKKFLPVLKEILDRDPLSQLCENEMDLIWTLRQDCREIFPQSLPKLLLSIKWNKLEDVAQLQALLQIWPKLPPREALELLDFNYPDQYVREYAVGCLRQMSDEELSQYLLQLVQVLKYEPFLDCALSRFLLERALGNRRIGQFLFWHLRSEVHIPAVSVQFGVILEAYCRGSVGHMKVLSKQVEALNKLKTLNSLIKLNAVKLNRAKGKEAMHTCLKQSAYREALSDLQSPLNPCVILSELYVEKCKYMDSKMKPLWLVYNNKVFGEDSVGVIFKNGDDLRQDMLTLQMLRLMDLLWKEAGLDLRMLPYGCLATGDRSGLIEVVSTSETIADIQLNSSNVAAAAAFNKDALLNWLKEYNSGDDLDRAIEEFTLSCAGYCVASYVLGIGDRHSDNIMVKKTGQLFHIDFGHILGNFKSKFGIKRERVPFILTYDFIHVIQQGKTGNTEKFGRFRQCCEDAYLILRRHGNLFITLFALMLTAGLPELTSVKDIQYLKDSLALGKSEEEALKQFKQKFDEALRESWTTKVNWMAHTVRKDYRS

In turn, `O=c1cc(N2CCOCC2)oc2c(-c3ccccc3)cccc12` [LY294002, 2-(4-morpholinyl)-8-phenyl-4H-1-benzopyran-4-one, reference compound] returned an IC50 of 736 nM.

As a reminder, the IC50 is the concentration at which inhibition is half-maximal. Read a high IC50 as weaker potency in that assay.

These data come from patent publication US9505780B2, “Thienopyranones as kinase and epigenetic inhibitors” (SignalRx Pharmaceuticals, Inc., priority 2014, dated 2016).
